Test results taken from paper PMC10459755, “Production in Bacteria and Characterization of Engineered Humanized Fab Fragment against the Nodal Protein” (Pharmaceuticals, 2023).

Amino acid sequences for entries named in this document (tags omitted). Residues count along the entry.
UniProt Q96S42, 238-347: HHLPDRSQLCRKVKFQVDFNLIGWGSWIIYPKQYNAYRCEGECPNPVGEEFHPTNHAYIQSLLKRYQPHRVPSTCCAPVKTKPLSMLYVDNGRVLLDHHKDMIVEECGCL

Molecular target: T1, human recombinant Nodal (rhNodal) (Homo sapiens, UniProt Q96S42)
T1 construct: Nodal, human, recombinant; also called Nodal recombinant protein; recombinant protein Nodal; source: bought: R&D Systems (code 3218-ND/CF)
Assay: BLI; rhNodal immobilised at 10 μg/mL in 10 mM NaAc pH 4.5 on AR2G sensors; rhFab_3D1 at 6.25-100 nM in PBS with 0.02% Tween20, 0.1% BSA, 0.05% sodium azide; 25 °C; 1:1 Langmuir model, one fit for each concentration; apparent KDs; final KD averaged from 25, 50 and 100 nM
Settings: both partners purified

B1: recombinant humanized Fab of the 3D1 anti-Nodal antibody (rhFab_3D1) (Fab, V domains shown)
VH: EVQLVESGGGLVQPGGSLRLSCAASGFTFRNYWMSWVRQAPGKGLEWVAEIRLKSDNYAARYAESVKGRFTISRDTSKNTAYLQMNSLRAEDTAVYYCSGIRRFAYWGQGTLVTVSS
VL: DIQMTQSPSSLSASVGDRVTITCKSSQSLLNSGNQKNYLTWYQQKPGKAPKLLIYWASTRESGVPSRFSGSRSGTDFTLTISSLQPEDFATYYCQNDYSYPLTFGQGTKVEIK
Kd: 7.8 nM
